Drawing on ChEMBL document CHEMBL3351920, “Biased and unbiased strategies to identify biologically active small molecules” (Bioorg Med Chem, 2014), this text covers Ki for 1 molecule.

By UniProt entry, the sequences of proteins in these tests, tags left out.
UniProt Q07820, whole entry: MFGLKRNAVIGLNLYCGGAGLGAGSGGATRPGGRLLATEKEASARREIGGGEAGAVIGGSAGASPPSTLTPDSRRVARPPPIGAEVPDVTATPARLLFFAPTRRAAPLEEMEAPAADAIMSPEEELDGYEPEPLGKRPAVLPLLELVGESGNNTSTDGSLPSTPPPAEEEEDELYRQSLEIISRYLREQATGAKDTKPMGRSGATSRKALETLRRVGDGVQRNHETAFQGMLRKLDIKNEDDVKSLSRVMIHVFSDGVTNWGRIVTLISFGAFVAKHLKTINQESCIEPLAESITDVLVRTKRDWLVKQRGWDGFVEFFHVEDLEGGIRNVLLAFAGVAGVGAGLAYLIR

For this experiment, the target named is Induced myeloid leukemia cell differentiation protein Mcl-1 (Homo sapiens, UniProt Q07820). As to the kind of experiment: Binding affinity to induced myeloid leukemia cell differentiation protein 1 (unknown origin).

For `CN(C)CC[C@H](CSc1ccccc1)Nc1ccc(S(=O)(=O)NC(=O)c2ccc(N3CCN(Cc4ccccc4-c4ccc(Cl)cc4)CC3)cc2)cc1[N+](=O)[O-]` [ABT 737], the Ki (as a rule, a dissociation constant, usually derived from enzyme kinetics or from competition with a known ligand) is more than 1 nM.
